In this experiment the target is T1, URAT-1 (Homo sapiens, UniProt Q96S37).
T1 construct: expressed in transfected cells; host or cells: MDCK
Briefly: Inhibition of 14C-labelled uric acid transport in MDCK cell line stably transfected with the URAT-1 gene. In kind it is cell-based. As to conditions: MDCK cells stably transfected with URAT-1, 14C uric acid 50 uM; read-out: IC50 against URAT-1. From the text:
Based on the study of the Lesinurad metabolic pathway and its clinical toxic side effects, a series of compounds containing a naphthalene ring substituent (formula I) were designed and synthesized in the present invention, in which two representative compounds (formulas II and V) were successfully separated to give the rotational isomers (formula III and formula IV, formula VI and formula VII). The inventors examined the ability of these compounds to inhibit the transport of labeled uric acid by MDCK cell lines stably transfected with the human URAT1 gene.
Determination of the IC50 value of the inhibitory activity of the compound against uric acid reabsorption by the MDCK cell line stably transfected with the URAT-1 (uric acid transporter) gene.
URAT-1 (MDCK) cell line: the MDCK cell line stably transfected with the URAT-1 gene
Cell culture medium: MEM culture medium added 10% fetal bovine serum (FBS), 1% sodium pyruvate and 250 ug/ml G418. […]
^14C-labelled uric acid was diluted and added into plate, and the final concentration was 50 uM. […] The signal was read by liquid scintillation counter Tri-Carb.
URAT-1 inhibition by the treatment of the compounds was analyzed by calculating the percentage of inhibition according to luminescent data. […]

Chains of the proteins cited; added tags and fusions are not shown. Lines headed by an entry give the natural chain unless they say otherwise; changes in a name come on top.
UniProt Q96S37: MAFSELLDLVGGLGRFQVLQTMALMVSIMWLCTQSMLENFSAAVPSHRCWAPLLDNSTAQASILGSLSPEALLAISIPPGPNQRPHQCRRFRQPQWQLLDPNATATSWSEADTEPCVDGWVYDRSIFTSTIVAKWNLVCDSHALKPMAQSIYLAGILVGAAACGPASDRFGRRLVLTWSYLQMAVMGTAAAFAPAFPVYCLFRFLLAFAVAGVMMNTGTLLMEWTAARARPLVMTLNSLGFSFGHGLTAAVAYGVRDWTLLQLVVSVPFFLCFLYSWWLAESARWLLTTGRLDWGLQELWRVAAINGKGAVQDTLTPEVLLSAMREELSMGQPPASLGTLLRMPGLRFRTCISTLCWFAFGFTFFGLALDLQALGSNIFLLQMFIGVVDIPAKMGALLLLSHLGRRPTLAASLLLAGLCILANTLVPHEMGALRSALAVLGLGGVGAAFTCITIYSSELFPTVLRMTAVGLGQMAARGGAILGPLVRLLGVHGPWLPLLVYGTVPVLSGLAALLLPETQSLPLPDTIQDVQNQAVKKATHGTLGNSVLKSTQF

Structures are written as SMILES.

Regarding `O=C(O)CSc1nnc(Br)n1-c1ccc(C2CC2)c2ccccc12` (racemic) [(±)-Lesinurad, Lesinurad, reference compound], the IC50 was 24 µM.

In general, IC50 refers to the point on the concentration scale where inhibition reaches its midpoint.

For the origin of these results see patent publication US10633351B2, “Halogenated compound and axially chiral isomer thereof” (MEDSHINE DISCOVERY INC., priority 2016, dated 2020).
